In the assay the test system is Jeko cells engrafted in SCID mice. Description: Preclinical model of human MCL in SCID mice, survival. Particulars: n=10/group, from day 15; FTY720 5 mg/kg i.p. daily 2 weeks; antibodies 15 mg/kg i.p. every three days. The assay is classed as in vivo, mouse. As for the experimental part: FIG. 5. Evaluation of in vivo therapeutic activity of FTY720 and milatuzumab in the preclinical MCL model. SCID mice were injected i.v. with 40×10^6 JeKo cells and observed daily for signs of tumor burden. The median survival for FTY720 and milatuzumab treated mice (N=10) was 36 days (95% CI:31-36), compared to 31 days for the FTY720 treated mice (95% CI:28-32) and 33.5 days for the milatuzumab treated mice (95% CI:23-34).
To examine the in vivo activity of FTY720 and milatuzumab, our previously described preclinical model of human MCL using the SCID mouse was used (Liu et al. 2010, Clin Cancer Res 16:3182-92). Six to eight-week old female SCID mice (cb17 scid/scid) were purchased from Taconic Farms (Hudson, N.Y.) and maintained in pathogen-free, isolation cages. All animals were depleted of murine NK cells with intra-peritoneal (i.p.) injections of 0.2 mg of rat anti-mouse interleukin-2 receptor β monoclonal antibody (TMβ1) 1 day prior to engraftment with human tumor cell lines and then every week. […] Animals were monitored daily for signs of tumor burden, including hind limb paralysis, respiratory distress, weight loss, ruffled coat, and distended abdomen. Body weight was measured weekly for the first 3 weeks and then daily. […]
We next evaluated the in vivo effect of FTY720 in combination with milatuzumab in a preclinical model of human MCL. […]

For “trastuzumab: anti-ErbB2 antibody used as control”, the median survival was 27 days.

The record behind these values is patent publication US8591892B2, “FTY720 increases CD74 expression and sensitizes cancer cells to anti-CD74 antibody-mediated cell death” (The Ohio State University, priority 2011, dated 2013).
